{"source": "paper PMC2481421", "about": "“Gene expression response in target organ and whole blood varies as a function of target organ injury phenotype” (Genome Biology, 2008)", "test_system": "liver", "experiment": "Liver histopathology (H&E sections of left liver lobe, severity graded) after a single dose", "details": "rat, single administration", "data": [{"smiles": "Clc1ccccc1Cl", "note": "[1,2-Dichlorobenzene]", "values": [{"measurement": "Primary site of livery injury", "value": "Centrilobular"}]}]}
